Data published in publication PMC2744590 (Biochimica et biophysica acta, 2009).

Protein sequences, listed by entry. Tags and fused reporters are not part of them. Residues count along the entry.
UniProt P09483, 31-630: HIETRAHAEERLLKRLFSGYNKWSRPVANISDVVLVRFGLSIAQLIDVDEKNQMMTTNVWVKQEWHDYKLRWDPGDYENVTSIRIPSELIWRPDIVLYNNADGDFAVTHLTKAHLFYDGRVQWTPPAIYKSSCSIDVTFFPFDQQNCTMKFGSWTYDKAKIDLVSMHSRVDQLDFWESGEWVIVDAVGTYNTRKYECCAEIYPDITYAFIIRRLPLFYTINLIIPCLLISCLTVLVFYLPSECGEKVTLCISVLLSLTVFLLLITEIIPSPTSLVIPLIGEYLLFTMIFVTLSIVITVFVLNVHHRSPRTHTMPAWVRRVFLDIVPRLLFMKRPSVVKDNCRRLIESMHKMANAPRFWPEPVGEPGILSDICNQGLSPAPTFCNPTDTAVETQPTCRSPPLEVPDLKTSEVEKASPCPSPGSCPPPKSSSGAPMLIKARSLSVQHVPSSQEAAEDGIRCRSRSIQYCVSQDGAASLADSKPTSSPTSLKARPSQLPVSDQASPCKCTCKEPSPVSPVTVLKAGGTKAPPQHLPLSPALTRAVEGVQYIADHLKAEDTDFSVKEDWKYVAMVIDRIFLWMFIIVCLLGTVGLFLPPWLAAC
UniProt P12392, 25-495: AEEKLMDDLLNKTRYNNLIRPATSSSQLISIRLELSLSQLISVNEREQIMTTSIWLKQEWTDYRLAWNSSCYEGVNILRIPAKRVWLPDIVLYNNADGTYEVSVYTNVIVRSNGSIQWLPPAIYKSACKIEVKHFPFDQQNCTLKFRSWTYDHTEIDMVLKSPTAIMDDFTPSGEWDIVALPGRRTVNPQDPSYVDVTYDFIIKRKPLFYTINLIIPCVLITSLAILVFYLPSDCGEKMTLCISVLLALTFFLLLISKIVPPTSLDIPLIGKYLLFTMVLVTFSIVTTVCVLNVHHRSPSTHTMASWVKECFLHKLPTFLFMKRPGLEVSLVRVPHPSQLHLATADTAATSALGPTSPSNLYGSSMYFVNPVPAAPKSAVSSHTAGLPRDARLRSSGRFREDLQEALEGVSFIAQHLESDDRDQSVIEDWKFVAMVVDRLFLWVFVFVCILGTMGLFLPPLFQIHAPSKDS

Assays:
[1] = target: rat α4β4 nAChRs (Rattus norvegicus, UniProt P09483+P12392); type: binding; conditions: 1 nM probe, 254 nm, 30 or 15 min
[2] = test system: α4β2/α4β4; conditions: higher affinity to β2; cited from earlier work
[3] = test system: α2β2/α2β4; conditions: higher affinity to β2; cited from earlier work
[4] = test system: α3β2/α3β4; conditions: higher affinity to β2; cited from earlier work

Substance: [^125I]epibatidine
- pattern of photoincorporation [1]: incorporated selectively into the β4 subunit
- fold difference in affinity, β2- compared to β4-containing receptors [2]: ~3 fold
- fold difference in affinity, β2- compared to β4-containing receptors [3]: ~8 fold
- fold difference in affinity, β2- compared to β4-containing receptors [4]: ~22 fold
